The nature of this data set: Salt screening: XRPD form after exposure to 95%+ relative humidity for one day. The data set is classed as physicochemical. The arrangement: key: Am = amorphous. The following applies: slurry solvent EtOH; solid dried under vacuum at 50° C., then 95%+ relative humidity for one day. The procedure:
A stock solution of Form P material of (S)-12-fluoro-4-(2-methylpyridin-3-yl)-7a,8,13,14-tetrahydro-7H-[1,2,4]triazolo[4′,3′:1,6]pyrido[3,2-b]benzofuro[4,3-fg][1,4]oxazonine, free base, was prepared in 2,2,2-trifluoroethanol (50.8 mg/mL). Stock solutions of counter ion were prepared in EtOH.
Salt formation was carried out at room temperature in 2 mL vials. 25.4 mg of Form P free base material (500 μL stock solution) and 1.1 equivalents of counter ion were added to each vial. Solvent was allowed to evaporate at 40° C. overnight with stirring. […] These vials were kept on the hotplate to continue evaporating (temperature increased to 50° C.), while the more-dry samples were dried further under vacuum for 3 hours at 50° C. The samples still containing solvent at the end of the day were left to stir at 30° C. over the weekend to finish evaporating the solvent. These samples were dried further under vacuum for 3 hours at 50° C.
Approximately 20 volumes of solvent (0.5 mL) was added to each vial containing the dried solids. The three solvents selected were EtOH, EtOAc, and IPA:water (9:1 vol). Once solvents were added, the mixtures (or solutions) were stirred at room temperature. When slurries were formed, the solids were filtered for XRPD analysis.
XRPD analysis was done in three stages. XRPD of the wet cake was done for all collected samples. […]

In the case of “(S)-12-fluoro-4-(2-methylpyridin-3-yl)-7a,8,13,14-tetrahydro-7H-[1,2,4]triazolo[4′,3′:1,6]pyrido[3,2-b]benzofuro[4,3-fg][1,4]oxazonine [Hydrochloric acid (5)]”, the “XRPD Form humidity” value was “Am”.
